# From ChEMBL document CHEMBL2163339, “Discovery of potent inhibitors of human and mouse fatty acid amide hydrolases” (J Med Chem, 2012)
# Amino acid sequences for entries named in this document (tags omitted).
# UniProt O00519, whole entry: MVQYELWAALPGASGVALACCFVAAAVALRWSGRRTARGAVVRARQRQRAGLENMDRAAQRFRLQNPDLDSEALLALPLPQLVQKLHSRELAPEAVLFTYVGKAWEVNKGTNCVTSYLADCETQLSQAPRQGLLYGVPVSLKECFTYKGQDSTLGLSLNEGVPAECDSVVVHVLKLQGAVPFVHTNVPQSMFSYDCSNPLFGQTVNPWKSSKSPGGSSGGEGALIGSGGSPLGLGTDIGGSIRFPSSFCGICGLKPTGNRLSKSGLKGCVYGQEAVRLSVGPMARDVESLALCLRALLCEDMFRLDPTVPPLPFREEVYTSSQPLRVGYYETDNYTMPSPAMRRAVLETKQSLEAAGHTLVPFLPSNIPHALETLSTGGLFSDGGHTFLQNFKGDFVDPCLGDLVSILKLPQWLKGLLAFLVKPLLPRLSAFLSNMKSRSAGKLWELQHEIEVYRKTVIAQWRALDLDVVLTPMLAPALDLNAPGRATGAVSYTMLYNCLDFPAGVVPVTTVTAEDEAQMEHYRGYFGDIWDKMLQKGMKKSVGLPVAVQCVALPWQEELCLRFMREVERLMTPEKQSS
# Target: Fatty-acid amide hydrolase 1 (Homo sapiens, UniProt O00519)
# Assay: Inhibition of human recombinant FAAH
compound,measurement,value
C#CCCCCCCCCCNC(=O)Oc1cccc(-n2ccc(C(N)=O)c2)c1,IC50,0.17 µM
